The values below are quoted from earlier work in PubChem BioAssay AID977608 (Shanghai Institute of Organic Chemistry, 2014).

Each structure is given as a SMILES string.

Common to all, as to assay: protein-ligand inhibition affinities from structures – PDB-derived complexes (AID 977608)
One data set concerns the target Cationic trypsin. The settings on record: literature IC50, protein: Cationic trypsin.
Data set [1] addresses 3-phosphoinositide dependent protein kinase 1.
Data set [2] has as its target serine/threonine-protein kinase 6.
Data set [3] has as its target heat shock protein 90 alpha. The conditions noted are these: literature IC50, protein: heat shock protein 90 alpha.
Data set [4] addresses cell division protein kinase 2.
Another data set concerns the target adenylate cyclase. The conditions noted are these: literature IC50, protein: adenylate cyclase, chain 2BW7_A,2BW7_B, PDB entry 2BW7.
The target of the next data set is acetylcholinesterase. The conditions noted are these: literature IC50, protein: acetylcholinesterase.
The target of a further data set is collagenase 3 (mmp-13). The conditions noted are these: literature IC50, protein: collagenase 3 (mmp-13), chain 1YOU_A, PDB entry 1YOU.
The next data set has as its target Renin. The conditions noted are these: literature IC50, protein: Renin, chain 3Q4B_A, PDB entry 3Q4B.
For data set [5], the target named is catalytic domain of PDE10A. The settings on record: literature IC50, protein: catalytic domain of PDE10A, PDB entry 3wym.
Another data set addresses Glr4197 protein?GLIC. The conditions noted are these: literature IC50, protein: Glr4197 protein?GLIC, chain 3P50_A, PDB entry 3P50.
The target in data set [6] is Proto-oncogene tyrosine-protein kinase Src. The conditions noted are these: literature IC50, protein: Proto-oncogene tyrosine-protein kinase Src, chain 3EL8_A, PDB entry 3EL8.
A further data set addresses thrombin light chain. The conditions noted are these: literature IC50, protein: thrombin light chain, chain 1WAY_B, PDB entry 1WAY.
For the next data set, the target named is Tankyrase-1. The settings on record: literature IC50, protein: Tankyrase-1, PDB entry 4n4v.
Another data set addresses TANKYRASE-2. The conditions noted are these: literature IC50, protein: TANKYRASE-2, PDB entry 4avu.
Data set [7] concerns the target Macrophage metalloelastase. The settings on record: literature IC50, protein: Macrophage metalloelastase, chain 2W0D_A, PDB entry 2W0D.
For the next data set, the target named is HIV-1 IN core domain. The conditions noted are these: literature IC50, protein: HIV-1 IN core domain, chain 3LPU_A, PDB entry 3LPU.
The target of a further data set is human tankyrase 2. The conditions noted are these: literature IC50, protein: human tankyrase 2, PDB entry 4bjc.
The target in data set [8] is DUAL SPECIFICITY MITOGEN-ACTIVATED PROTEIN KINASE KINASE 1, human MEK1. The settings on record: literature IC50, protein: DUAL SPECIFICITY MITOGEN-ACTIVATED PROTEIN KINASE KINASE 1, human MEK1, chain 4AN2_A, PDB entry 4AN2.
For data set [9], the target named is TYROSINE-PROTEIN KINASE JAK2. The settings on record: literature IC50, protein: TYROSINE-PROTEIN KINASE JAK2, chain 2XA4_A, PDB entry 2XA4.
The target in data set [10] is phosphatidylinositol 3-kinase (PI3K), p110alpha. The settings on record: literature IC50, protein: phosphatidylinositol 3-kinase (PI3K), p110alpha, PDB entry 4l23.
A further data set has as its target hiv-1 protease. The settings on record: literature IC50, protein: hiv-1 protease, chain 4PHV_A,4PHV_B, PDB entry 4PHV.
In data set [11] the target is LYSINE-SPECIFIC DEMETHYLASE 4A, JMJD2A. The settings on record: literature IC50, protein: LYSINE-SPECIFIC DEMETHYLASE 4A, JMJD2A, PDB entry 4bis.
Data set [12] deals with glycogen synthase kinase-3 beta. The settings on record: literature IC50, protein: glycogen synthase kinase-3 beta, chain 1UV5_A, PDB entry 1UV5.
Data set [13] has as its target Vascular endothelial growth factor receptor 2, VEGFR2 kinase domain. The settings on record: literature IC50, protein: Vascular endothelial growth factor receptor 2, VEGFR2 kinase domain, chain 3VID_A, PDB entry 3VID.
The target of another data set is HCV NS5B polymerase. The conditions noted are these: literature IC50, protein: HCV NS5B polymerase, PDB entry 4gmc.

With `Nc1ccncc1`, the IC50 on Cationic trypsin (chain 3RXF_A, PDB entry 3RXF) is 2500 µM. Consider `CN[C@@H]1C[C@H]2O[C@@](C)([C@@H]1OC)n1c3ccccc3c3c4c(c5c6ccccc6n2c5c31)C(=O)N[C@@H]4O`, for which the concentration for half-maximal inhibition (IC50) in [1] (literature IC50, protein: 3-phosphoinositide dependent protein kinase 1, chain 1OKZ_A, PDB entry 1OKZ) was 0.005 µM. For `CN1CCN(c2ccc(C(=O)Nc3n[nH]c4c3CN(C(=O)Cc3cccs3)C4)cc2)CC1`, the half-maximal inhibitory concentration (IC50) in data set [2] (literature IC50, protein: serine/threonine-protein kinase 6, chain 2J4Z_A, PDB entry 2J4Z) was 0.065 µM. On to `Cn1cc(C2=C(c3cn(CCCN)c4ccccc34)C(=O)NC2=O)c2ccccc21`, for which, in [1] (literature IC50, protein: 3-phosphoinositide dependent protein kinase 1, chain 1UVR_A, PDB entry 1UVR), the concentration for half-maximal inhibition (IC50) was 1 µM.

Consider `CS(=O)(=O)c1ccc(CN2CCN(c3cn[nH]c3-c3cc(Cl)c(O)cc3O)CC2)cc1`, for which, in [3] (chain 2CCU_A, PDB entry 2CCU), the IC50 was 0.74 µM. On to `Cc1nc(C)c(-c2ccnc(N)n2)s1`, for which, in [4] (literature IC50, protein: cell division protein kinase 2, chain 2C5O_A, PDB entry 2C5O), the IC50 is 6.5 µM. With `NS(=O)(=O)c1cccc(Nc2nc(OCC3CCCCC3)c3[nH]cnc3n2)c1`, the IC50 in data set [4] (literature IC50, protein: cell division protein kinase 2, chain 1OIU_A, PDB entry 1OIU) was 0.21 µM. `CC(=O)N[C@@H](CCCN=C(N)N)C(=O)N[C@@H](CCCN=C(N)N)C(=O)N[C@@H](CC(C)C)C(=O)N[C@@H](CC(N)=O)C(=O)N[C@@H](Cc1cccc(Cl)c1)C(N)=O`: the concentration for half-maximal inhibition (IC50) in data set [4] (literature IC50, protein: cell division protein kinase 2, chain 1OKW_B, PDB entry 1OKW) is 5.6 µM. Regarding `C[C@]12CC[C@@H]3c4cc(O)c(O)cc4CC[C@H]3[C@@H]1CC[C@@H]2O`, the half-inhibitory concentration (IC50) on adenylate cyclase was 2 µM.

As for `NCCc1c[nH]c2ccccc12`, the half-maximal inhibitory concentration (IC50) on Cationic trypsin (chain 3ATM_A, PDB entry 3ATM) was 873 µM; on Cationic trypsin (chain 3RXI_A, PDB entry 3RXI), 873 µM. `CN(C)C[C@@H](O)COc1ccc(Nc2ncc(Br)c(Nc3ccccc3)n2)cc1`: the 50% inhibitory concentration (IC50) in data set [4] (literature IC50, protein: cell division protein kinase 2, chain 1H08_A, PDB entry 1H08) is 28 µM. `c1ccc2c(NCCCCCNc3c4c(nc5ccccc35)CCCC4)c3c(nc2c1)CCCC3`: the half-inhibitory concentration (IC50) at acetylcholinesterase (chain 2CMF_A, PDB entry 2CMF) was 0.028 µM. Regarding `CCOCCC1(Oc2ccc(Oc3ccc(F)cc3)cc2)C(=O)NC(=O)NC1=O`, the IC50 on collagenase 3 (mmp-13) is 0.00087 µM.

As to `CO[C@@H](C(=O)N1Cc2[nH]nc(NC(=O)c3ccc(N4CCN(C)CC4)cc3)c2C1)c1ccccc1`, the IC50 in data set [2] (literature IC50, protein: serine/threonine-protein kinase 6, chain 2J50_A, PDB entry 2J50) is 0.013 µM. Regarding `CC(=O)N[C@@H](CCCN=C(N)N)C(=O)N[C@H]1CCCCNC(=O)CNC(=O)[C@H](Cc2ccccc2)NC(=O)[C@H](CC(C)C)NC1=O`, in data set [4] (literature IC50, protein: cell division protein kinase 2, chain 1URC_B, PDB entry 1URC), the IC50 was 19.2 µM.

With `NCCc1cnc[nH]1`, the IC50 at Cationic trypsin (chain 3RXH_A, PDB entry 3RXH) is 15700 µM. Turning to `CN[C@H](CNC(=O)N1CCC[C@@H]([C@@H](OCCNC(=O)OC)c2cccc(Cl)c2)C1)C[C@H]1CCCOC1`, the IC50 at Renin is 0.00047 µM. As for `COc1cn(-c2ccc(-n3cccn3)cc2F)nc(-c2ccnn2-c2ccccc2)c1=O`, the IC50 in data set [5] was 0.0003 µM. As for `Cc1nc(N)sc1-c1ccnc(Nc2ccc(N3CCOCC3)cc2)n1`, in [4] (literature IC50, protein: cell division protein kinase 2, chain 2UUE_A, PDB entry 2UUE), the IC50 was 0.74 µM. `CC(C)c1cccc(C(C)C)c1O`: the concentration for half-maximal inhibition (IC50) on Glr4197 protein?GLIC was 24 µM. For `CC(C)n1nc(-c2ccc(NC(=O)Nc3cccc(C(F)(F)F)c3)cc2)c2c(N)ncnc21`, the IC50 in [6] is 0.025 µM. With `Clc1cccc(Nc2nc(OCC3CCCCC3)c3[nH]cnc3n2)c1`, the IC50 in data set [4] (literature IC50, protein: cell division protein kinase 2, chain 1H1R_A, PDB entry 1H1R) was 2.3 µM.

As to `Clc1ccc(-c2cc(C3CCNCC3)[nH]n2)cc1`, the IC50 on thrombin light chain was 400 µM.

`CC1(C)OC(=O)N(C2CCC(c3cnc(N)c(-c4ncccn4)c3)CC2)[C@H]1c1ccccc1` (stereo partly specified): at Tankyrase-1, the IC50 was 0.002 µM. For `CC(C)C[C@H](NC(=O)[C@H](CCCN=C(N)N)NC(=O)[C@@H](N)CCCN=C(N)N)C(=O)N[C@@H](CC(N)=O)C(=O)N[C@@H](Cc1ccc(F)cc1)C(N)=O`, the half-maximal inhibitory concentration (IC50) in [4] (literature IC50, protein: cell division protein kinase 2, chain 1OL2_B, PDB entry 1OL2) was 0.53 µM.

With `O=c1[nH]c2ccccc2c2ccccc12`, the IC50 at TANKYRASE-2 is 0.014 µM. For the molecule `COc1ccc(S(=O)(=O)N(Cc2cccnc2)[C@@H](C(=O)NO)C(C)C)cc1`, in data set [7], the IC50 was 0.002 µM. Turning to `CCC[C@H](C(=O)O)c1c(C)nc2ccc(Cl)cc2c1-c1ccccc1`, the IC50 on HIV-1 IN core domain is 1.37 µM. As for `CNCc1ccc(-c2[nH]c3cc(F)cc4c3c2CCNC4=O)cc1`, the 50% inhibitory concentration (IC50) at human tankyrase 2 was 0.014 µM. As for `COc1ccc2c3c1O[C@H]1C[C@@H](O)C=C[C@@]31CC[N+](CCCCCCCCN1C(=O)c3ccccc3C1=O)=C2`, at acetylcholinesterase (chain 1W4L_A, PDB entry 1W4L), the IC50 is 0.004 µM. As to `O=C(c1ccc(F)c(F)c1Nc1ccc(I)cc1F)N1CC(O)([C@@H]2CCCCN2)C1`, the half-maximal inhibitory concentration (IC50) in [8] is 0.0009 µM.

On to `NC1CCC(O)CC1` (stereo unspecified), for which the IC50 at Cationic trypsin (chain 3RXG_A, PDB entry 3RXG) was 7100 µM. As to `Cc1cc(Nc2nc(N[C@@H](C)c3ncc(F)cn3)ncc2Cl)n[nH]1`, the IC50 in data set [9] is 0.003 µM. Consider `Oc1cccc(-c2nc(N3CCOCC3)c3oc4ncccc4c3n2)c1`, for which, in data set [10], the half-maximal inhibitory concentration (IC50) is 0.0179 µM. Take `O=C(N[C@H]1c2ccccc2C[C@H]1O)[C@H](Cc1ccccc1)CC(O)C[C@@H](Cc1ccccc1)C(=O)N[C@H]1c2ccccc2C[C@H]1O`: the 50% inhibitory concentration (IC50) at hiv-1 protease is 0.00067 µM. As for `O=S(=O)(Nc1ccc(O)c(-c2c(O)ccc3ccccc23)c1)c1cc(Cl)ccc1Cl`, the IC50 in data set [3] (chain 2BZ5_A, PDB entry 2BZ5) is 0.7 µM. For `O=C(O)c1ccnc2c(O)cccc12`, in [11], the IC50 is 1.4 µM.

Regarding `O=Nc1c(-c2c(O)[nH]c3cc(Br)ccc23)[nH]c2ccccc12`, the IC50 in data set [12] is 0.005 µM.

For `c1ccc2c3c([nH]c2c1)-c1[nH]ncc1CCC3`, in data set [13], the IC50 was 0.62 µM.

Regarding `O=C(NS(=O)(=O)c1ccccc1)c1ccc2c(C3CCCCC3)c(-c3ccoc3)n(CC(=O)N3CCOCC3)c2c1`, the concentration for half-maximal inhibition (IC50) on HCV NS5B polymerase was 0.018 µM.

By IC50 is commonly meant the point on the concentration scale where inhibition reaches its midpoint.
